Data as given in ChEMBL document CHEMBL5108055, “Dual A1/A3 Adenosine Receptor Antagonists: Binding Kinetics and Structure-Activity Relationship Studies Using Mutagenesis and Alchemical Binding Free Energy Calculations” (J Med Chem, 2022).

By UniProt entry, the sequences of proteins in these tests, tags left out.
UniProt P0DMS8, whole entry: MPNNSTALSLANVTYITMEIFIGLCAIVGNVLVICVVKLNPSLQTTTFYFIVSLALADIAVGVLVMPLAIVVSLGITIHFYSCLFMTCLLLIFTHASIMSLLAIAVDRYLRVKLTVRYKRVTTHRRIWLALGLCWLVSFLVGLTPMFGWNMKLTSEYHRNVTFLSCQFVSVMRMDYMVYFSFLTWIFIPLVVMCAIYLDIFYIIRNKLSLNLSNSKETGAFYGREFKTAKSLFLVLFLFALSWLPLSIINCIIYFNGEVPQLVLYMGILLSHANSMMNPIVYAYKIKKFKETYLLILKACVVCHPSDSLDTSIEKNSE

Target: Adenosine receptor A3 (Homo sapiens, UniProt P0DMS8)
Assay: Binding affinity to adenosine A3R (unknown origin)

Kd: 550 pM
SMILES: CCCn1cc2c(nc(NC(=O)Nc3ccc(OC)cc3)n3nc(-c4ccco4)nc23)n1
